# Sfp inh: qHTS Assay for Inhibitors of Bacillus subtilis Sfp phosphopantetheinyl transferase (PPTase); 4'-phosphopantetheinyl transferase ffp (Bacillus subtilis), Q9F4F7; Biochemical Sfp PPTase activity, qHTS; Potency, µM, for inactives: max response, negative = inhibition, most hits filed as inhibitors; hit rate 3.5% among 310,000; AID 1490, 2009; active = well fitted inhibition curve with a large enough effect; inconclusive = small, poorly fitted or top-dose-only effect, or another doubt; inactive = no such curve, though single readings can be large or run the other way;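 also: the enzyme is Sfp with the accession as filed and its product quenches rhodamine fluorescence; potency is read from the fitted curve at half-maximal effect; 0% = enzyme reaction without inhibitor and -100% = no enzyme wells; top concentration of the series not given in the record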
#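 Sfp 15 nM + cpd, 15 min RT; start w/ rhodamine-CoA 5 uM, BHQ-2-YbbR 12.5 uM (final); 50 mM Hepes pH 7.6, 10 mM MgCl2, 0.01% NP-40, 0.01% BSA; read 525/598 nm at 0 and 30 min.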
# JMJD2E inh: blocks human JMJD2E demethylase activity; B2RXH2; JMJD2E catalytic domain, FDH-coupled NADH fluorescence (FDH is formaldehyde dehydrogenase); Potency, µM (series often up to 57.1 µM), inactives show top-dose activity change, negative = inhibition, actives largely listed as inhibitors; hit rate 1.6% among 230,000; AID 2147; active = well fitted inhibition curve with a large enough effect, not every such curve was filed as active; inconclusive = small, poorly fitted or top-dose-only effect, or another doubt; inactive = no such curve, though single readings can be large or run the other way;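 also: potency is read from the fitted curve at half-maximal effect; 0% = wells with enzyme and -100% = buffer wells without enzyme; nearly all actives have a fitted effect of over 50% in size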
# G9a block: G9a (human) methyltransferase inhibition | Q96KQ7 | G9a H3K9 monomethylation, AlphaScreen, 2 h | Potency, µM (doses to about 102 µM), for the others: at the highest dose activity, negative = inhibition, usual class: inhibitors | hit rate 8.8% among 350,000 | AID 504332; also: potency is read from the fitted curve at half-maximal effect; % is scaled to controls: 0 for no effect and ±100 for the full control effect; nearly all actives have a fitted effect of over 75% in size
#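 Compounds were preincubated with 20 nM G9a for 15 min, after which biotinylated H3K9 peptide (500 nM) and SAM (20 uM) started a 2 h room-temperature reaction. Monomethylated product was quantified by antibody-based AlphaScreen chemiluminescence.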
# ALDH1A1 block: inhibitors of human aldehyde dehydrogenase 1A1; P00352; Purified ALDH1A1, NADH fluorescence, propionaldehyde substrate; Potency, µM (doses to about 75.3 µM), without a hit: at the top dose activity, negative = inhibition, most hits filed as inhibitors; hit rate 7.3% among 220,000; AID 1030; active = well fitted inhibition curve with a large enough effect, not every such curve was filed as active; inconclusive = small, poorly fitted or top-dose-only effect, or another doubt; inactive = no such curve, though single readings can be large or run the other way;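 also: potency is read from the fitted curve at half-maximal effect; plate controls were no enzyme wells and a reference inhibitor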
# miR-21 reporter: miR-21 reporter, rising signal; 340,000 tested, under 10 active; Potency, µM (highest dose often 38.3 µM), for the others: top-dose reporter change, positive = more light; HeLa miR-21 FLuc reporter, luciferase, 48 h; active = well fitted rising curve with a large enough effect; inconclusive = small, poorly fitted or top-dose-only effect; inactive = no such curve, though single readings can be large or run the other way;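 further: % of control where 0% means no effect; miR-21 action dims this reporter so a rising signal means less miR-21 action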
#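 HeLa cells endogenously expressing miR-21, stably carrying CMV-driven firefly luciferase with a downstream miR-21 binding site, 2000 cells/well. Titrations up to approximately 40 uM, 48 hours; luciferase luminescence read.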
# LMNA splice mod: modulators of lamin A splicing | HeLa LMNA splicing GFP/RFP minigene ratio, 48 h | Potency, µM (titrated, usually from 46.1 µM), for the others: at the highest dose ratio change, negative = inhibition, most hits filed as inhibitors | hit rate 0.01% among 200,000 | AID 1487; active = well fitted inhibition curve with a large enough effect in the signal ratio, with a control signal flat, not every such curve was filed as active; inconclusive = small, poorly fitted or top-dose-only effect, or effect the other way, or a change in a side signal; the % refers to the signal ratio; also: potency is read from the fitted curve at half-maximal effect; % is scaled to controls: 0 for no effect and ±100 for the full control effect
#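 Read-out is the ratio of GFP to DsRed2 object intensity, acquired by 488 nm laser-scanning cytometry on HeLa lamin A-EGFP minigene reporter cells. Compound incubation 48 hrs at 37 °C in Opti-MEM with 2% FBS; DMSO 0.5% final.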
# * hit, by the source's call; ? = inconclusive; . = no result given; ! = repeats disagree; [ ] = dose if it differs, or a comment. A selection: hits, their analogues and other compounds. The true share with any hit is near 13%. Unless noted, calls follow the shape of the dose curve; as a rule, active = well fitted curve in the direction sought with a large enough effect; inconclusive = small, poorly fitted or top-dose-only effect, or another doubt; inactive = no such curve, though single readings can be large; an effect the other way counts as inactive or inconclusive.
Sfp inh | JMJD2E inh | G9a block | ALDH1A1 block | miR-21 reporter | LMNA splice mod | smiles
20µM* | ? | 44.7µM* | ? | -6.7% | . | N#Cc1c(-c2ccccc2)cc(-c2ccccc2)nc1SCC(=O)NCC(=O)O
-10.6% | ? | 31.5% | ? | -8.4% | ? | CCOC(=O)CC(=O)CSc1nc(-c2ccccc2)cc(-c2ccccc2)c1C#N
. | . | 0.3%[12.7 µM] | . | . | . | COc1ccccc1N1CCN(C(=O)c2ccc3c(=O)n4c(nc3c2)CCCCC4)CC1
. | . | 1.78µM* | . | 1.7% | . | CCCSc1nc(-c2ccc(OC)cc2)cc(-c2ccccc2OC)c1C#N
25.1µM* | ? | . | . | 2.5% | . | CCCc1c(C)[nH]c2ccc(C(=O)O)cc2c1=S
. | . | -26.7%[59 µM] | . | 18.9% | ? | COc1ccc(C(=O)NCC(c2ccc3c(c2)OCO3)N2CCN(c3ccccc3F)CC2)cc1 (configuration not stated)
35.5µM* | ? | ? | ? | -3.2% | 3.2% | CCn1cc(C(=O)NCc2ccc(C)o2)c2cc(OC)c(OC)cc2c1=O
7.3% | ? | 15.6%[59 µM] | -7.1% | -14.1% | -6.3% | CCn1cc(C(=O)NCC(=O)OC)c2cc(OC)c(OC)cc2c1=O
. | . | 3.5%[59 µM] | . | -30.9% | . | CCn1c(=O)c(C(=O)Nc2ccc(C(C)=O)cc2)nc2ccccc21
10.7% | . | . | . | -1.8% | . | CCC(C(=O)NCCCN1CCOCC1)n1c2ccccc2c2nc(=O)cc(C)n21 (configuration not stated)

# Brought forward from above: two entries, followed by the next part.
Sfp inh | JMJD2E inh | G9a block | ALDH1A1 block | miR-21 reporter | LMNA splice mod | smiles
. | . | 3.5%[59 µM] | . | -30.9% | . | CCn1c(=O)c(C(=O)Nc2ccc(C(C)=O)cc2)nc2ccccc21
10.7% | . | . | . | -1.8% | . | CCC(C(=O)NCCCN1CCOCC1)n1c2ccccc2c2nc(=O)cc(C)n21 (configuration not stated)
. | . | 50.1µM* | . | . | . | CCOc1ccc(NC(=O)CN(C)C(=O)Cn2cnc3c2c(=O)n(C)c(=O)n3C)cc1OCC
? | . | 39.8µM* | . | -18.1% | . | CCOc1ccc(NC(=O)CN(C)C(=O)c2ccncc2)cc1OCC
. | . | 56.2µM* | . | . | . | CCOc1ccc(NC(=O)CN(C)C(=O)c2ccccc2CCc2ccccc2)cc1OCC
. | . | 50.1µM* | . | . | . | CCOc1ccc(NC(=O)CN(C)C(=O)c2cc(-c3ccc(OC)cc3)nc3ccccc23)cc1OCC
. | . | -7.1% | . | . | . | CCOc1ccc(NC(=O)CN(C)C(=O)c2cccc3ccccc23)cc1OCC
. | . | 9.5%[0.501 µM] | . | . | . | COc1ccc(-c2cc(C(=O)N(C)CC(=O)Nc3ccccc3Br)c3ccccc3n2)cc1OC
. | . | ? | . | -0.9% | . | COc1ccccc1/C=C/c1nc(C#N)c(N2CCCCCC2)o1
. | . | -27.8%[59 µM] | . | -13.6% | . | COC(=O)c1ccc(NC(=O)CSc2ccc(-c3sc(-c4ccccc4)nc3C)nn2)cc1
. | . | 50.1µM* | . | . | . | Cc1ccc(S(=O)(=O)CCC(=O)OCC(=O)N2CCN(S(=O)(=O)c3ccccc3)CC2)cc1
. | . | 39.8µM* | . | . | . | COc1ccc(N2CCN(C(=O)COC(=O)CCS(=O)(=O)c3ccc(C)cc3)CC2)cc1

# (cont.)
Sfp inh | JMJD2E inh | G9a block | ALDH1A1 block | miR-21 reporter | LMNA splice mod | smiles
. | . | 10.4%[2.33 µM] | . | . | . | Cc1ccc(S(=O)(=O)CCC(=O)OCC(=O)N2CCN(c3ccccc3)CC2)cc1
. | -5.8% | 8.91µM*! | 5.7% | . | -8.4% | NCCC1CCCC(CCN)N1 (configuration not stated)
. | . | 5.1%[12.7 µM] | . | -15.0% | -9.4%[46 µM] | Cc1ccccc1C(=O)Nc1cccc(C(=O)OCc2cc(=O)n3nc(C4CC4)sc3n2)c1
44.7µM* | 14.5% | 30.8%[0.501 µM] | -1.8% | ? | ? | CCOc1cc(CNC(C)(C)CO)cc(Br)c1OCc1ccc(Cl)cc1Cl
50.1µM* | ? | 35.5µM* | 14.1µM* | -11.9% | ? | COc1cccc(CNc2ccccc2O)c1OCc1ccccc1F
17.8µM* | ? | 11.2µM* | 28.2µM* | 20.9% | 7.1% | CCOc1cc(CNc2ccc(O)cc2)cc(Br)c1OCc1ccccc1F
28.2µM* | -3.9% | 11.2µM* | 22.4µM* | -9.9% | -7.0% | COc1cc(CNc2ccc(O)cc2)cc(Br)c1OCc1ccccc1F
. | . | 7.7%[59 µM] | . | 0.2% | ? | Cc1ccccc1NC(=O)CN(C)S(=O)(=O)c1cccc2nsnc12
. | . | -28.5%[59 µM] | . | -2.7% | 29.1%[46 µM] | COc1ccc(C)cc1NC(=O)C(=O)NCC(c1cccnc1)N1CCc2ccccc21 (configuration not stated)
. | . | 24.6%[59 µM] | . | -12.5% | . | Cc1nn(CC(=O)N2CCCCC2)c(=O)c2cc3occc3n12

# Continuation:
Sfp inh | JMJD2E inh | G9a block | ALDH1A1 block | miR-21 reporter | LMNA splice mod | smiles
. | . | 16.0%[12.7 µM] | . | . | . | NC(=O)c1ccc(NC(=O)COC(=O)CC2Sc3ccccc3NC2=O)cc1 (configuration not stated)
. | . | -30.9% | . | . | . | O=C(CCC1CCCCC1)NCCS(=O)(=O)N1CCN(c2ccccc2)CC1
. | . | 4.8%[59 µM] | . | 23.9% | 5.1%[46 µM] | COc1ccc(S(=O)(=O)NCCS(=O)(=O)N2CCN(c3ccccc3)CC2)cc1C
-13.7% | 1.7% | ? | 0.355µM* | -1.2% | 5.8%[46 µM] | Cc1ccccc1-n1nnnc1SCC(=O)c1c(N)n(C)c(=O)n(C)c1=O
0.1% | -5.0% | 28.2µM* | 17.8µM* | -12.3% | -11.6% | Cc1ccc(Nc2nnc(SCC(=O)NCCN3C(=O)CSC3=O)s2)cc1C
5.5% | -8.8% | -4.5%[59 µM] | 1.2% | -36.1% | 5.9% | Cc1ccc(SCC(=O)NCCN2C(=O)CSC2=O)cc1C
5.8% | . | 50.1µM* | . | 3.5% | . | CCc1ccccc1-n1nnnc1SCC(=O)Nc1ccc(N2CCN(C)CC2)cc1
-0.9% | . | ? | . | 1.8% | . | CCc1ccccc1-n1nnnc1SCC(=O)Nc1cc(C)on1
50.1µM* | ? | 25.3%[59 µM] | . | -5.5% | . | CC(=O)Nc1ccc(-n2nnnc2SCC(=O)Nc2cccc(NC(=O)c3ccco3)c2)cc1
-0.3% | . | . | . | . | . | CC1COC(=O)O1 (configuration not stated)

# Fetched one by one from above, 3 records:
Sfp inh | JMJD2E inh | G9a block | ALDH1A1 block | miR-21 reporter | LMNA splice mod | smiles
50.1µM* | ? | 25.3%[59 µM] | . | -5.5% | . | CC(=O)Nc1ccc(-n2nnnc2SCC(=O)Nc2cccc(NC(=O)c3ccco3)c2)cc1
-0.3% | . | . | . | . | . | CC1COC(=O)O1 (configuration not stated)
. | . | 16.0%[12.7 µM] | . | . | . | NC(=O)c1ccc(NC(=O)COC(=O)CC2Sc3ccccc3NC2=O)cc1 (configuration not stated)

# (further entries)
Sfp inh | JMJD2E inh | G9a block | ALDH1A1 block | miR-21 reporter | LMNA splice mod | smiles
14.7% | . | 24.9%[59 µM] | 0.9% | . | . | N[C@@H](Cc1cc(I)c(Oc2ccc(O)cc2)c(I)c1)C(=O)O
. | . | 8.8%[59 µM] | . | -6.9% | . | COc1cc2[nH]c(=O)n(CCCC(=O)NCc3ccc(Cl)cc3)c(=O)c2cc1OC
-9.5% | ? | 44.7µM* | -9.0% | -0.3% | 5.4% | Cc1ccc(-c2nc(SCC(=O)NCCN3C(=O)CSC3=O)[nH]c2-c2ccc(C)cc2)cc1
3.8% | . | 44.7µM* | . | 6.0% | . | Cc1cccc(-n2nnnc2SCC(=O)Nc2ccc(N3CCN(C)CC3)cc2)c1
20.8% | 4.9% | 15.8% | ? | -3.6% | -0.6% | Cc1ccc(-n2nnnc2SCC(=O)NNC(=O)c2ccco2)c(C)c1
24.3% | 0.8% | -7.3% | -7.0% | -1.8% | 3.8%[46 µM] | Cc1nnc(SCC(=O)NCCN2C(=O)CSC2=O)n1-c1ccccc1
11.5% | -5.5% | -6.5%[59 µM] | 20µM* | -1.1% | 7.8% | Cc1cccc(-n2nnnc2SCC(=O)NCCN2C(=O)CSC2=O)c1
9.9% | -24.0% | 8.2% | 14.1µM* | -1.9% | 12.3%[46 µM] | O=C(CSc1nnnn1-c1ccccc1F)NNC(=O)c1ccco1
. | . | -8.6%[59 µM] | . | 3.0% | . | CC(=O)Nc1ccccc1-c1nc2ccccc2n(CC(=O)Nc2ccc(C)c(Cl)c2)c1=O
13.9% | . | 50.1µM* | . | 1.5% | . | Cc1ccccc1-n1nnnc1SCC(=O)Nc1ccc(N2CCN(C)CC2)cc1
